Test results reported in patent US20030235860A1, “Interactions between AR, ER, TR2, and TR4” (priority 1999, published 2003).

By UniProt entry, the sequences of proteins in these tests, tags left out. Chains listed by the source or under a name are the forms on record and can include a tag or linker.
UniProt P10275, with tags, fused parts or gaps DEL79-80/DUP473-473: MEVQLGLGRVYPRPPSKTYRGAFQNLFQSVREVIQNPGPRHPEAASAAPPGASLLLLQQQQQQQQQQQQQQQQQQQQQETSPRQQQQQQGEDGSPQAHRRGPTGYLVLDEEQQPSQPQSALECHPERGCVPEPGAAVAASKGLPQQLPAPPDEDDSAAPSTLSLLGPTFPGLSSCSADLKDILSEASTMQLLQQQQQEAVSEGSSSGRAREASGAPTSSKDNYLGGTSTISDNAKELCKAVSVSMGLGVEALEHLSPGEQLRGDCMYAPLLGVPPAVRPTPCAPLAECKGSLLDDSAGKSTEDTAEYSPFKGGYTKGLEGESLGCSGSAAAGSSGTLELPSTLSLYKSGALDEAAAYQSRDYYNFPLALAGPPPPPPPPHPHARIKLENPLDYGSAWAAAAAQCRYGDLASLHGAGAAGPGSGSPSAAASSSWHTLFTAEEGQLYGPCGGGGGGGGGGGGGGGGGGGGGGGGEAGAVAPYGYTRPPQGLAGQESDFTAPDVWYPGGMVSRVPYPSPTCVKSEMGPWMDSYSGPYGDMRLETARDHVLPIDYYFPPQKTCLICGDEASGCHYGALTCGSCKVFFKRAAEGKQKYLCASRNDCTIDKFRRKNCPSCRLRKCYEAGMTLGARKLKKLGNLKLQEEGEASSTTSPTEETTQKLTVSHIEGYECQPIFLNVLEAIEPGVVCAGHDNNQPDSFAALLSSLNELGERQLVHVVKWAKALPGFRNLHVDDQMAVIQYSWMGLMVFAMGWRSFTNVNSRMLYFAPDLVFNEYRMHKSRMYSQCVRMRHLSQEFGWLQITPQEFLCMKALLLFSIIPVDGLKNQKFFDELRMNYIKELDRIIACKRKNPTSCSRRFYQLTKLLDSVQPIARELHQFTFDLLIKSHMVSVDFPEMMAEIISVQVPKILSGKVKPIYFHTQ

Target: T1, interaction between AR and TR4 (Homo sapiens, UniProt P10275, DEL79-80/DUP473-473)
T1 construct: A full-length AR(pSG5AR) was co-transfected with GAL4-TR4E; expressed in transfected cells; host or cells: H1299
Assay: Modified mammalian one-hybrid system pSG5AR / GAL4-TR4E
Format: cell-based
Conditions: H1299 cells; GAL4-TR4E + PG5-Luc

B1: PR: progesterone receptor (protein)
chain: MTELKAKGPRAPHVAGGPPSPEVGSPLLCRPAAGPFPGSQTSDTLPEVSAIPISLDGLLFPRPCQGQDPSDEKTQDQQSLSDVEGAYSRAEATRGAGGSSSSPPEKDSGLLDSVLDTLLAPSGPGQSQPSPPACEVTSSWCLFGPELPEDPPAAPATQRVLSPLMSRSGCKVGDSSGTAAAHKVLPRGLSPARQLLLPASESPHWSGAPVKPSPQAAAVEVEEEDGSESEESAGPLLKGKPRALGGAAAGGGAAAVPPGAAAGGVALVPKEDSRFSAPRVALVEQDAPMAPGRSPLATTVMDFIHVPILPLNHALLAARTRQLLEDESYDGGAGAASAFAPPRSSPCASSTPVAVGDFPDCAYPPDAEPKDDAYPLYSDFQPPALKIKEEEEGAEASARSPRSYLVAGANPAAFPDFPLGPPPPLPPRATPSRPGEAAVTAAPASASVSSASSSGSTLECILYKAEGAPPQQGPFAPPPCKAPGASGCLLPRDGLPSTSASAAAAGAAPALYPALGLNGLPQLGYQAAVLKEGLPQVYPPYLNYLRPDSEASQSPQYSFESLPQKICLICGDEASGCHYGVLTCGSCKVFFKRAMEGQHNYLCAGRNDCIVDKIRRKNCPACRLRKCCQAGMVLGGRKFKKFNKVRVVRALDAVALPQPVGVPNESQALSQRFTFSPGQDIQLIPPLINLLMSIEPDVIYAGHDNTKPDTSSSLLTSLNQLGERQLLSVVKWSKSLPGFRNLHIDDQITLIQYSWMSLMVFGLGWRSYKHVSGQMLYFAPDLILNEQRMKESSFYSLCLTMWQIPQEFVKLQVSQEEFLCMKVLLLLNTIPLEGLRSQTQFEEMRSSYIRELIKAIGLRQKGVVSSSQRFYQLTKLLDNLHDLVKQLHLYCLNTFIQSRALSVEFPEMMSEVIAAQLPKILAGMVKPLLFHKK
For B1, the “Induction when AR was replaced with other activated steroid receptors” value was “no induction”.
